Experimental data reported in US8906904B2, “Alkoxy pyrazoles as soluble guanylate cyclase activators” (Boehringer Ingelheim International GmbH, priority 2012, dated 2014).

The chains behind the UniProt entries cited, without tags or fusion partners.
UniProt Q02108, whole entry: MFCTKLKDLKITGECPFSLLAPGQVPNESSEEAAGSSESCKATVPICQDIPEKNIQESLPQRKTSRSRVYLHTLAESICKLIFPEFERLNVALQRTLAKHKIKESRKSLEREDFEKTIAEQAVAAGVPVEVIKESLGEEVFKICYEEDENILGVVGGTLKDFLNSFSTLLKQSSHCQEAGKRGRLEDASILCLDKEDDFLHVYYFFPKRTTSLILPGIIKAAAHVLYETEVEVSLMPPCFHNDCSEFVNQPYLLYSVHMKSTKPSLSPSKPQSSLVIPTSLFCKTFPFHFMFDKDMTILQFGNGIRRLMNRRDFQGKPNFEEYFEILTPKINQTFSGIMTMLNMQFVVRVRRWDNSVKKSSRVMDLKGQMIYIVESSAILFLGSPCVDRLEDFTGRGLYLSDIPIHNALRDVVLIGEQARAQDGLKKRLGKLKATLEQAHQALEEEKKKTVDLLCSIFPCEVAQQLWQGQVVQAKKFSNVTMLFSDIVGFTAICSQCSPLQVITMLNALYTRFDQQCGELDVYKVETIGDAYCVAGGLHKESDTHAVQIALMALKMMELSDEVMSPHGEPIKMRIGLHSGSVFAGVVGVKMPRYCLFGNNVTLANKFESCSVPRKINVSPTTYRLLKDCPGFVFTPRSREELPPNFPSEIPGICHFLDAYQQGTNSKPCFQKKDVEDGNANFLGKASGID
UniProt Q02153, whole entry: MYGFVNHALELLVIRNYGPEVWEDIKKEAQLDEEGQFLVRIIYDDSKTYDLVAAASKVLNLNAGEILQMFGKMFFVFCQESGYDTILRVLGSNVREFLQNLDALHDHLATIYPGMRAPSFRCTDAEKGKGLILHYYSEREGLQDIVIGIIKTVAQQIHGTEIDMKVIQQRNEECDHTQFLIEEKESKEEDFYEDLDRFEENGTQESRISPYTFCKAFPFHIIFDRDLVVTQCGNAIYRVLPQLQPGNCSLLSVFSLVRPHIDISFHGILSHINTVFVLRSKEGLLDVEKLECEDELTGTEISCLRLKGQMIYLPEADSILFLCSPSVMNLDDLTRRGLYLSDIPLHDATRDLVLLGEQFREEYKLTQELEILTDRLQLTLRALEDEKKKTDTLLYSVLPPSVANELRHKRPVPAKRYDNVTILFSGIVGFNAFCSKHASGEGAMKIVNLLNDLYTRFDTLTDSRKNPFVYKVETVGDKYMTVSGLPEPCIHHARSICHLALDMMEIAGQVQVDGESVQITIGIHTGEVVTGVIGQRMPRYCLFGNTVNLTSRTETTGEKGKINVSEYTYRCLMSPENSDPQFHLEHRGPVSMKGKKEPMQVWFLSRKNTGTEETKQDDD

Columns and labels:
[1] = target: human soluble guanylate cyclase alpha 1 and beta 1 subunits (sGC) (Homo sapiens, UniProt Q02108+Q02153); test: sGC cellular activator assay (cGMP, HTRF); settings: CHO cells stably expressing human sGC alpha 1/beta 1, preincubated with 40 microM ODQ; cGMP readout; assay run with and without 50% human serum, Table 2 does not say which
Protocol: The sGC cellular activator assay is performed in the presence and absence of 50% human serum (HS) using Chinese hamster ovary cells that have been stably transfected to express the human soluble guanylate cyclase alpha 1 and beta 1 subunits (sGC). Cells are preincubated with 40 microM 1H-[1,2,4]oxadiazolo[4,3-a]quinoxalin-1-one (ODQ), an sGC inhibitor, for one h in buffer containing 0.1% bovine serum albumin and 3-isobutyl-1-methylxanthine (IBMX). Concentration response curves are prepared for test compounds in DMSO. An intermediate dilution of the compounds is performed in either buffer containing IBMX or type AB HS containing IBMX. Diluted compounds are added to cells and they are incubated at room temperature for thirty min. cGMP is measured using a CisBio homogeneous time resolved fluorescence kit and the EC50 is calculated for each compound.
Representative compounds of the present invention were tested for activity the above assay. Preferred compounds have an EC50 of <1,000 nM in the above assay and more preferred compounds have an EC50<200 nM.

[2] = human liver microsome (HLM) metabolic stability assay; settings: human liver microsomes; % hepatic blood flow calculated from t1/2
Protocol: The 5 time point, high-throughput human liver microsome (HLM) metabolic stability assay is designed to determine in vitro compound metabolism. Compounds are incubated with HLMs at a concentration of 1 uM, at 37° C., for a total of 60 min. The percent of compound remaining at 5, 15, 30, and 60 min is used to calculate the t½ (min), CLint (mL/min/kg), CLh (mL/min/kg), and % Qh. The assay is based on a 96-well format and can accommodate up to 92 compounds per plate (n=1).
Using the 96-well multi-channel head, the Biomek FX, equipped with a Peltier heating block/shaker, is programmed to accomplish the following steps: • 1. Pipette 175 uL of 1.15 mg/mL microsomes into each of the 96 conical inserts (Analytical Sales and Products, catalog number 96PL05) that fit into the plate of the Peltier heating block/shaker (the incubation plate) • 2. Add 5 uL of compounds from the assay plate to the microsomes and shake the mixture at 600 rpm at 42.1° C. for 10 min (a setting of 42.1° C. on the Peltier is required for the samples to incubate at 37° C.) • 3. After 10 min, prompt the user to add the NADPH plate to the deck and add 20 uL from the NADPH plate to the incubation plate to start the reaction • 4. Add 215 uL of 100%, cold acetonitrile containing an internal standard(s) to a 0 minute, 5 minute, 15 minute, 30 minute, and 60 minute “quench” plate • 5. At 0 min, 5 min, 15 min, 30 min, and 60 min into the incubation, aspirate 12 uL from the incubation mixture and add it to the quench solution to stop the reaction • 6. Add 185 uL HPLC grade water to each well of the 0, 5, 15, 30 and 60 minute quench plates to dilute compounds to the appropriate concentration for the mass spectrometer
After all time points are collected, the quench plates are sealed with 96-well pierceable plate mats or heat sealing foil and centrifuged at 3000 rpm for 15 min to pellet the microsomes.
The plates are analyzed using LC/MS/MS with electron spray ionization (ESI) and the previously determined MRM transitions. The LC method includes the following parameters:
Using an Excel template in Activitybase, the peak areas corresponding to 5, 15, 30 and 60 min are compared to the peak area at 0 min to calculate the percent of remaining compound using the following equation: Percent compound remaining=(AUC at Time t min/AUC at Time 0 min)×100 where t=0, 5, 15, 30 or 60 min.
Time (min) is plotted against the natural logarithm (Ln) of the percent compound remaining to determine the slope. The slope is used to calculate t½ (min) using the equation, t½=0.693/slope.
Clint, Intrinsic Clearance 0.693/t½*Avg liver wt in g/avg body wt in kg*f(u)/protein concentration in incubation in mg/mL*mg microsomal protein/g liver 0.693/t½*26 g/kg*1/1.0 mg/mL*45 mg/g Clh, Hepatic Clearance Hepatic flow*f(u)*Clint/(hepatic flow+f(u)*Clint) Qh, % Hepatic Blood Flow (Clh/Hepatic flow)*100
Preferred compounds have % Qh values of less than 24.

[3] = room temperature, 2.5% DMSO; for Solubility (pH 2.2): McIlvaine buffer pH 2.2, 24 h; for Solubility (pH 4.5): McIlvaine buffer pH 4.5, 24 h; for Solubility (pH 6.8): McIlvaine buffer pH 6.8, 24 h

| Structure (SMILES) | EC50 [1] | HLM (% Qh) [2] | Solubility (pH 2.2) [3] | Solubility (pH 4.5) [3] | Solubility (pH 6.8) [3] |
| --- | --- | --- | --- | --- | --- |
| Cc1cccc(-c2cccc(-n3ncc(C(=O)O)c3OC(C)C)n2)c1OCc1ccc2c(c1C)CCN(C1CCCOC1)C2 (stereo not drawn) | 10 nM | <24 % Qh | 100 μg/mL | 82 μg/mL | 86 μg/mL |
| Cc1cccc(-c2cccc(-n3ncc(C(=O)O)c3OC(C)C)n2)c1OCc1ccc2c(c1C)CCN(C1CCOC1)C2 (stereo not drawn) | 22 nM | <24 % Qh | 87 μg/mL | 69 μg/mL | 79 μg/mL |
| CCOc1c(C(=O)O)cnn1-c1cccc(-c2cccc(C)c2OCc2cc(C)c3c(c2C)CCN(C2CCOCC2)C3)n1 | 11 nM | <24 % Qh | – | – | – |
| COc1c(C(=O)O)cnn1-c1cccc(-c2cccc(C)c2OCc2ccc3c(c2C)CCN([C@H]2CCOC2)CC3)n1 | 7.4 nM | <24 % Qh | – | – | – |

The remaining lines, values ahead:

| EC50 [1] | HLM (% Qh) [2] | Solubility (pH 2.2) [3] | Solubility (pH 4.5) [3] | Solubility (pH 6.8) [3] | Structure (SMILES) |
| --- | --- | --- | --- | --- | --- |
| 13 nM | <24 % Qh | – | – | – | CCOc1c(C(=O)O)cnn1-c1cccc(-c2cccc(C)c2OCc2ccc3c(c2)CCN(C2CCOCC2)CC3)n1 |
| 34 nM | <24 % Qh | 88 μg/mL | 33 μg/mL | 36 μg/mL | Cc1cccc(-c2cccc(-n3ncc(C(=O)O)c3OC(C)C)n2)c1OCc1ccc2c(c1)CCN([C@@H]1CCOC1)C2 |
